Patent US10857139B2 (dated 2020)

Test system: androgen receptor (AR)
Test: Secreted PSA induced by R1881 in hormone refractory (HR) LNCaP/AR cells (PSA ELISA)
Assay type: cell-based
Details: FIG. 3, R1881, 5 days incubation

SMILES: CNC(=O)c1ccc(N2C(=S)N(c3cnc(C#N)c(C(F)(F)F)c3)C(=O)C23CCC3)cc1F [A52, 4-[7-(6-cyano-5-trifluoromethylpyridin-3-yl)-8-oxo-6-thioxo-5,7-diazaspiro[3,4]oct-5-yl]-2-fluoro-N-methylbenzamide]
- antagonist effect on HR cancer cells (secreted PSA): antagonist effect
